Tests used:
HEK293 [1] = test: Selectivity for recombinant HDAC6 expressed in HEK293 cells to recombinant HDAC1 expressed in HEK293 cells; format: cell-based
HEK293 [2] = test: Selectivity for nuclear HDAC isolated from human HeLa cells to recombinant HDAC1 expressed in HEK293 cells; format: cell-based

CCSC(=S)SCC(=O)c1ccc(NC(=O)Nc2ccccc2)cc1
Ratio IC50 (HEK293 [1]): 30 | Ratio IC50 (HEK293 [2]): 470
